In this experiment the test system is HLA transgenic mice. Nature of the experiment: T cell response to Hcit peptides in HLA transgenic mice (screening, ex vivo ELISpot). Also on record: species or system mouse. The conditions noted are these: yes/no; Hcit peptide with CpG/MPLA. How it is done:
C57BL/6 mice (Charles River, UK), HLA-DR4 mice (Model #4149, Taconic, USA), HLA-A2/DR1 (HHDII/DR1, Pasteur Institute), HLA-A2.1+/+HLA-DP4+/+hCD4+/+ (HLA-HHDII/DP4) transgenic mice (EM: 02221, European Mouse Mutant Archive) described in patent WO2013/017545 A1 (EMMA repository, France) were used, aged between 8 and 12 weeks. Peptides were dissolved in PBS to 1 mg/ml and then emulsified (a series of dilutions) with CpG ODN 1826 and MPLA 6 μg/mouse of each (Invivogen, UK). Peptides (25 μg/mouse) were injected subcutaneously at the base of the tail. Mice were immunised at days 1, 7 and 14 for peptide immunisation. Spleens were removed for analysis at day 21 unless stated otherwise.
ELISpot assays were performed using murine IFNγ, IL-17 and IL-10 capture and detection reagents according to the manufacturer's instructions (Mabtech, Sweden). […] After incubation, captured IFNγ, IL-10 and IL-17 were detected by biotinylated anti-IFNγ, IL-10 and IL-17 antibodies and developed with a streptavidin alkaline phosphatase and chromogenic substrate. […] Spots were analysed and counted using an automated plate reader (Cellular Technologies Ltd).
Screening was performed to identify potential homocitrullinated vimentin epitopes in mice. […] On day 21 the mice were culled and the immune responses to each peptide within the immunising pool were assessed by ex vivo ELISpot. […]

Regarding “LARLDLER-Hcit-VESLQEEIAFL-Hcit [Vimentin 215-235 Hcit]”, the T cell response result was “no”.

The record behind these values is patent US12458688B2, “Epitopes” (Scancell Limited, priority 2018, dated 2025).
